The values that follow come from patent US10144746B2 (GLOBAL BLOOD THERAPEUTICS, INC., priority 2015, dated 2018).

The chains behind the UniProt entries cited, without tags or fusion partners. Residues count along the entry.
UniProt P03952, 20-390 partner: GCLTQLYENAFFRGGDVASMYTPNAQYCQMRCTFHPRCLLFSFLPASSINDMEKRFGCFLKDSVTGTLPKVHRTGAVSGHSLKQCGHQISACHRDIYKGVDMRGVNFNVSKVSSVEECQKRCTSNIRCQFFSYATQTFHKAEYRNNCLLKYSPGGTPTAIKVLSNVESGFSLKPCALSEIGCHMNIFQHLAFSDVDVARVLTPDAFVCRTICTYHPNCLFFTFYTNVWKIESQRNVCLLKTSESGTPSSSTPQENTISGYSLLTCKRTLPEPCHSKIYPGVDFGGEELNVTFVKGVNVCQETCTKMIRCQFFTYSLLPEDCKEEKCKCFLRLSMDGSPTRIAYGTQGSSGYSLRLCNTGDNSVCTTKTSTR
UniProt P03952, 391-638: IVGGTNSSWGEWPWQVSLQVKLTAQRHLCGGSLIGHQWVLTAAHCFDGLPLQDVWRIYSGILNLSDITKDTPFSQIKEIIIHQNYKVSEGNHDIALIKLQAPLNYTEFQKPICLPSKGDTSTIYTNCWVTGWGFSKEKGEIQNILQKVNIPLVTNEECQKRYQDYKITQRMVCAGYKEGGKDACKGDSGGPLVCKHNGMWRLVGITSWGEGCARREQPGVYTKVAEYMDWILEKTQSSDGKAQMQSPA

The assay addresses Human plasma kallikrein (Homo sapiens (Human), UniProt P03952). Description: In vitro plasma kallikrein inhibition assay (chromogenic substrate D-Pro-Phe-Arg-pNa, absorbance at 405 nm, IC50 determination). The class given is biochemical. The procedure:
In Vitro Plasma Kallikrein Inhibition Assay
The chromogenic substrate D-Pro-Phe-Arg-pNa, 2HCl (BIOPHEN CS-31(02) from Hyphen BioMed, Neuville-Sur-oise, France) was dissolved in 5 mL deionized water and stored at 4° C. […] All other chemicals were of analytical grade.
A stock solution of 7 μM in 50% glycerol was stored at −20° C.
Enzyme reactions were conducted in “assay buffer” comprised of 20 mM HEPES at pH 7.4, 150 mM NaCl, 0.1% PEG-8000 and 0.01% Triton X-100.
Both enzyme and substrate were diluted in assay buffer.
Plate measurements were conducted using a SPECTROStar Nano reader (BMG Labtech, San Francisco, Calif., USA). […] We used discrete wavelength, precise, kinetic reads of 15 cycles with a 60 sec cycle time.
Determination of IC50 values
The test compound was dissolved in 100% DMSO. The compounds were serially diluted in DMSO in a 7 point dose response. For the assays, 66.5 μL of protease solution (protease in assay buffer) was added per well followed by the addition of 8.5 μL of compound in 100% DMSO. […] The plate was placed again on the shaker for 5 sec, spun at 2000 rpm for 5 sec and read on the spectrophotometer. […] The IC50 value was calculated from the plot of rate vs. inhibitor concentration by a 4 parameter logistic equation: y=A+((B−A)/([…])) […]

As for “(1R,8S)-N-{[6-amino-2-methyl-4-(oxan-4-yl)pyridin-3-yl]methyl}-12-(2,4-difluorophenyl)-15-oxatetracyclo[6.6.1.0^2,7.0^9,14]pentadeca-2,4,6,9,11,13-hexaene-4-carboxamide [Example 92]”, the “KLKB1 pIC50” value is 6.81.

With “(1R,8S)-N-[(6-amino-2,4-dimethylpyridin-3-yl)methyl]-12-(2,4-difluorophenyl)-15-oxatetracyclo[6.6.1.0^2,7.0^9,14]pentadeca-2,4,6,9,11,13-hexaene-4-carboxamide [Example 7]”, the “KLKB1 pIC50” value is 6.66.
